# In patent US8974768B2, “Azo compounds reducing formation and toxicity of amyloid beta aggregation intermediates” (Max-Delbrueck-Centrum fuer Molekulare Medizin, priority 2010, dated 2015):
# Chains of the proteins cited; added tags and fusions are not shown. Residues count along the entry.
# UniProt P05067, 672-713 limits assumed: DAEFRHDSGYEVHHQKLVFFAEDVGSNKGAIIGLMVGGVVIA
# Columns and labels:
# Aβ1-42 peptide = Aβ1-42 peptide (Homo sapiens, UniProt P05067); assay: Thioflavin T (Thio T)-assay of Aβ aggregation; type: biochemical; settings: read-out: ThioT: IC50; 30 μM Aβ1-42 peptide, 48 h at 37° C., vs DMSO control
# [1] = Detection of compounds in brain after in vivo administration; parameters: Detection in brain after i.v. administration: key to the marks not given beside the values
# [2] = test system: secreted Aβ monomers and dimers; assay: Cell-based Aβ-monomer and dimer assay (7PA2 cells, immunoprecipitation/immunoblot); settings: 20 μM compound, 16-20 hours
compound,measurement,setting,value
O=[N+]([O-])c1ccc(N=Nc2ccc(O)c([N+](=O)[O-])c2)c([N+](=O)[O-])c1,IC50,Aβ1-42 peptide,2.6 µM
same,Detection in brain after i.v. administration,"[1]; B6C3 mouse, 5 mg/kg body weight i.v. once, brain samples",++
same,Detectability after oral administration,"[1]; mouse brain, oral gavage or feeding pellets",excellent
same,"Detection in brain after oral administration, oral gavage administration","[1]; mouse, five to seven doses over two or three days, sampling 30 min. after last application",++^a)/n.d.^b)
same,Dimer reduction,[2],toxic
